Two compounds from US11767322B2 (BRISTOL-MYERS SQUIBB COMPANY, priority 2020, dated 2023) can be followed below.

Where two headings read alike, the source gives them in different places.

The experiment deals with MLKL phosphorylation in HT29-L23 human colorectal adenocarcinoma cells. Put plainly: MLKL phosphorylation high-content assay. The format is cell-based.

As to `COc1c(-c2ccc(C)c(C(=O)NCC[C@H](O)c3ccc(Cl)cc3)c2F)ccn2nc(N)nc12` (single isomer, unassigned; enantiomer 2) [Example 136], under “HT29-L23 cells, necroptosis induced with TNFα, SMAC mimetic and Z-VAD, 6 h, maximal inhibition defined by Nec1s, read-out: pMLKL IC50”, the IC50 came to 1.4 nM. Consider `COc1ncc(-c2ccn3nc(N)nc3c2)cc1C(=O)NCC[C@H](O)c1ccc(Cl)cc1` [Example 157], for which the IC50 (Homo sapiens, read-out: pMLKL IC50, Table 23, representative compounds from WO2018/148626) was found to be 115 nM.
